These results are taken from PubChem BioAssay AID1529 (NMMLSC, 2009).

Sequences of proteins named here, by UniProt entry; tags and fusion partners are left off.
UniProt Q99759, whole entry: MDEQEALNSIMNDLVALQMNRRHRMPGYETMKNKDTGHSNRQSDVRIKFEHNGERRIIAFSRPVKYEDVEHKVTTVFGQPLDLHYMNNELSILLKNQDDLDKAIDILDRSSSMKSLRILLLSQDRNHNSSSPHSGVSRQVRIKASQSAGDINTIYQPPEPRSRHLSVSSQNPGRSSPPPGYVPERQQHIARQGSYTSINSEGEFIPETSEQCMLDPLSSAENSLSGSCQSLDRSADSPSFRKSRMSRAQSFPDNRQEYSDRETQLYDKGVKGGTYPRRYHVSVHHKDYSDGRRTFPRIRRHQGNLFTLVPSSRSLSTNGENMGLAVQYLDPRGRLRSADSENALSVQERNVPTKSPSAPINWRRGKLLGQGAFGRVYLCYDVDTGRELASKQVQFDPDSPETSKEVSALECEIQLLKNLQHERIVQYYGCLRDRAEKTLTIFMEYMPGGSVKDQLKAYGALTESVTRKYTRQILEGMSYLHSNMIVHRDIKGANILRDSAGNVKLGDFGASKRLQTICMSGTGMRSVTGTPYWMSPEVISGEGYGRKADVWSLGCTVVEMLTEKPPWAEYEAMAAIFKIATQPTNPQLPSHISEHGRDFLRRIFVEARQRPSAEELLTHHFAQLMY

Only a part is listed here, and it is no random draw. Some structures show a salt or complex split into parts, the way the source records it. Calls of active or inactive are those of the source.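 The calls were made as follows: active = binding response more than 3 SD above or below the average of its plate-row segment, actives on both sides; inconclusive = wells at one plate position flagged as instrument error; inactive = the rest.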

The experiment has as its target Mitogen-activated protein kinase kinase kinase 3 (Homo sapiens) (UniProt Q99759). In words: modulators of MEKK3-MEK5 PB1 binding, primary screen, biochemical, wildtype MEKK3, multiplex bead flow cytometry, Alexa488-MEK5 (AID 1529).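 Also: Alexa488 bead fluorescence after subtracting the streptavidin-only scavenger bead signal.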 As to conditions: bead-based flow cytometry, Alexa488-MEK5 binding to MEKK3; at 10 µM; actives lie on both sides; 0 = blocked by unlabeled MEK5, 100 = vehicle. For orientation: Flow cytometry measures light scatter and fluorescence of single cells or particles in a stream.
For the molecule `CCN(CC)CCCOC(=O)C(O)(c1ccccc1)c1ccccc1`, the binding response (% of control) is inactive: 104%. Next, `CCOC(=O)c1ccc(NP(C)(=O)Oc2ccccc2)cc1` (configuration not stated): inactive: 97%. As for `COc1ccccc1OP(C)(=O)Nc1ccc(C)cc1` (configuration not stated), the binding response (% of control) was inactive: 98%. As for `COc1ccccc1OP(C)(=O)Nc1cc(Cl)ccc1C` (configuration not stated), the binding response (% of control) was inactive: 105%.

Turning to `Cc1cc(C)cc(OP(C)(N)=O)c1` (configuration not stated), the binding response (% of control) was inactive: 98%.

Consider `CC(C)(C)c1ccc(OP(C)(=O)Nc2ccc(SC(F)(F)F)cc2)cc1` (configuration not stated), for which the binding response (% of control) is inactive: 104%.

Regarding `Cc1cccc(C)c1OP(C)(N)=O` (configuration not stated), the binding response (% of control) is inactive: 104%. For `O=[N+]([O-])c1ccc2c(c1)C=Nc1ccccc1O2`, the binding response (% of control) is inactive: 106%.

On to `CP(=S)(Nn1cnnc1)Oc1ccccc1` (configuration not stated), for which the binding response (% of control) was inactive: 100%. For `COc1ccccc1OP(C)(=O)Nc1ccccc1` (configuration not stated), the binding response (% of control) is inactive: 101%. As to `CP(=O)(Nc1ccccc1Br)Oc1ccccc1` (configuration not stated), the binding response (% of control) is inactive: 99%.

`CCOP(C)(=S)SCC(=O)NC(C)C(=O)O` (configuration not stated): the binding response (% of control) was inactive: 103%.

Consider `CCOC(=O)c1ccc(NP(C)(=O)Oc2ccc(OC)cc2)cc1` (configuration not stated), for which the binding response (% of control) is inactive: 88%. On to `CP(=O)(Nc1ccccn1)Oc1ccc(Cl)cc1` (configuration not stated), for which the binding response (% of control) was inactive: 99%. Next, `CP(=O)(Nc1ccc(SC(F)(F)F)cc1)Oc1ccc(Cl)cc1` (configuration not stated): inactive: 86%; `Cc1cccc(C)c1OP(C)(=O)Nc1ccc(SC(F)(F)F)cc1` (configuration not stated): inactive: 103%; `CP(=O)(Oc1ccccc1)OC(c1ccccc1)C(F)(F)F` (configuration not stated): inactive: 104%. `CCc1ccc(OP(C)(=O)N2CCN(c3ccc([N+](=O)[O-])cc3)CC2)cc1` (configuration not stated): the binding response (% of control) was inactive: 88%. Next, `CP(=O)(NC(=O)Nc1ccccc1)Oc1ccccc1` (configuration not stated): inactive: 95%; `Cc1cc(C)cc(OP(C)(=O)Nc2ccc(SC(F)(F)F)cc2)c1` (configuration not stated): inactive: 122%. The result for `Cc1nc2ccc3ccccc3c2s1.O=[N+]([O-])c1cc([N+](=O)[O-])c(O)c([N+](=O)[O-])c1` reads inactive: 103%. As to `O=[N+]([O-])c1cc([N+](=O)[O-])c(-n2nnc3ccccc32)c([N+](=O)[O-])c1`, the binding response (% of control) is inactive: 103%. With `CN1CCCCC1COC(=O)C1(O)c2ccccc2CCc2ccccc21` (configuration not stated), the binding response (% of control) was inactive: 98%.

Take `COc1ccccc1OP(C)(=O)Nc1c(C)cccc1C` (configuration not stated): the binding response (% of control) is active: 1% [inhibitor]. As for `CP(=O)(Nc1ccc(SC(F)(F)F)cc1)Oc1ccccc1` (configuration not stated), the binding response (% of control) is inactive: 102%. Take `CCCOc1ccc(NP(C)(=O)Oc2ccc(Cl)cc2)cc1` (configuration not stated): the binding response (% of control) is inactive: 87%.

Regarding `O=[N+]([O-])c1cc([N+](=O)[O-])c(Nc2nnnn2CCO)c([N+](=O)[O-])c1`, the binding response (% of control) is inactive: 112%. On to `CCOC(=O)C(CC)C1=NC(C)(C)Cc2ccccc21.O=[N+]([O-])c1cc([N+](=O)[O-])c(O)c([N+](=O)[O-])c1` (configuration not stated), for which the binding response (% of control) was inactive: 127%. Consider `CC1=NCCc2c1[nH]c1ccccc21.O=[N+]([O-])c1cc([N+](=O)[O-])c(O)c([N+](=O)[O-])c1`, for which the binding response (% of control) is inactive: 100%. For the molecule `O=C(O)c1cccc(Nc2c([N+](=O)[O-])cc([N+](=O)[O-])cc2[N+](=O)[O-])c1`, the binding response (% of control) is inactive: 90%. With `CP(=O)(Nc1cccc(Br)c1)Oc1ccccc1` (configuration not stated), the binding response (% of control) was inactive: 104%. For `Cc1cc(C)cc(OP(C)(=O)Nc2ccccn2)c1` (configuration not stated), the binding response (% of control) is inactive: 101%.

In the case of `Cc1ccc(C)c(NP(C)(=O)Oc2ccccc2)c1` (configuration not stated), the binding response (% of control) was inactive: 105%.

For `COc1ccccc1OP(C)(=O)Nc1cccc(Br)c1` (configuration not stated), the binding response (% of control) is inactive: 95%. As to `Cc1cc(C)cc(OP(C)(=O)Nc2ccc(C)cc2C)c1` (configuration not stated), the binding response (% of control) is inactive: 108%. Consider `CCOC(=O)c1ccc(NP(C)(=O)Oc2cc(C)cc(C)c2)cc1` (configuration not stated), for which the binding response (% of control) was inactive: 104%. Turning to `O=C(OCCN1CCN(CCOCc2ccccc2)CC1)C(O)(c1ccccc1)c1ccccc1`, the binding response (% of control) was inactive: 91%.

Take `O=C(OC1CN2CCC1CC2)c1ccc([N+](=O)[O-])cc1` (configuration not stated): the binding response (% of control) was inactive: 100%. On to `COc1ccc2c(c1O)-c1c(O)c(OC)cc3c1[C@H](C2)[N+](C)(C)CC3.O=[N+]([O-])c1cc([N+](=O)[O-])c([O-])c([N+](=O)[O-])c1[O-]`, for which the binding response (% of control) is inactive: 98%. For the molecule `CC(C)c1ccc(OP(C)(=O)Nc2ccc(SC(F)(F)F)cc2)cc1` (configuration not stated), the binding response (% of control) was inactive: 97%. Turning to `CP(=O)(Nc1ccccc1F)Oc1ccccc1` (configuration not stated), the binding response (% of control) is inactive: 106%. For `CCN(CC)CCCOC(=O)C(O)(c1ccccc1)C1CCCCC1` (configuration not stated), the binding response (% of control) is active: 122%.

As for `CCCCCOc1ccc(NP(C)(=O)Oc2ccc(Cl)cc2Cl)cc1` (configuration not stated), the binding response (% of control) was inactive: 98%. With `O=[N+]([O-])c1cc([N+](=O)[O-])c(OC2CCCCC2O)c([N+](=O)[O-])c1` (configuration not stated), the binding response (% of control) was inactive: 102%.

Turning to `CP(=O)(Nc1ccccc1)Oc1ccc(F)cc1` (configuration not stated), the binding response (% of control) was inactive: 100%.

Regarding `COc1ccc(OP(C)(=O)Nc2ccc(SC(F)(F)F)cc2)cc1` (configuration not stated), the binding response (% of control) was inactive: 82%. Consider `CCOC(=O)c1ccc(NP(C)(=O)Oc2ccc(F)cc2)cc1` (configuration not stated), for which the binding response (% of control) was inactive: 93%. As to `Cc1cc(-c2cccc3ccccc23)c(C)cn1.O=[N+]([O-])c1cc([N+](=O)[O-])c(O)c([N+](=O)[O-])c1`, the binding response (% of control) was inactive: 99%. With `O=[N+]([O-])c1cc([N+](=O)[O-])c(NCC2CCS(=O)(=O)C2)c([N+](=O)[O-])c1` (configuration not stated), the binding response (% of control) was inactive: 102%. For `O=[N+]([O-])c1ccc(OP2(=O)COCCO2)cc1` (configuration not stated), the binding response (% of control) is inactive: 107%. For the molecule `COc1ccc(OP(C)(=O)Nc2cccc(Br)c2)cc1` (configuration not stated), the binding response (% of control) is inactive: 103%. As to `COc1ccc(NP(C)(=O)Oc2ccccc2OC)cc1` (configuration not stated), the binding response (% of control) was inactive: 104%. As to `CN(C)CCOC(=O)C(O)(c1ccccc1)C1CCCCC1` (configuration not stated), the binding response (% of control) was inactive: 92%. For `CP(=O)(Nc1ccc2c(c1)OCCO2)Oc1ccccc1` (configuration not stated), the binding response (% of control) is inactive: 109%.

For the molecule `Cc1ccccc1NP(C)(=O)Nc1ccccc1C`, the binding response (% of control) was inactive: 102%.

`CP(=O)(Nc1ccc(SC(F)(F)F)cc1)Oc1ccc(F)cc1` (configuration not stated): the binding response (% of control) is inactive: 91%. Regarding `CCOP(C)(=S)SCC(=O)NC(C)(CC)C(=O)O` (configuration not stated), the binding response (% of control) is inactive: 102%. As for `CP(=O)(Nc1ccc(Cl)cc1)Oc1ccc(F)cc1` (configuration not stated), the binding response (% of control) was active: 124%. Take `CC(C)(C)c1ccc(OP(C)(=O)O)cc1`: the binding response (% of control) is inactive: 102%. Take `COc1ccccc1OP(C)(=O)Nc1ccccc1Br` (configuration not stated): the binding response (% of control) is inactive: 95%. For `CN(C)C(=O)c1c([N+](=O)[O-])cc([N+](=O)[O-])cc1[N+](=O)[O-]`, the binding response (% of control) was inactive: 100%. Turning to `CCN(CC)CC(O)COC(=O)C(O)(c1ccccc1)C1CCCCC1` (configuration not stated), the binding response (% of control) was inactive: 100%.
